We go through one substance from patent US6828320B2, “Heterocyclic compounds” (SmithKline Beecham Corporation, priority 1996, dated 2004).

The experiment concerns the target HB4a cell line transformed by over-expression of c-erbB-2 (Homo sapiens, UniProt P04626). Description: Cell proliferation assay, HB4a erbB-2. The class given is cell-based. Particulars: 4 days at 37° C., methylene blue staining. The method, then:
The cell proliferation assay uses an immortalised human breast epithelial cell line (HB4a) which has been transformed by over-expression of c-erbB-2. Growth of these cells in low serum is dependent upon the c-erbB-2 tyrosine kinase activity. […] Cells are plated at 3000/ well in 96-well plates in 0.1 ml medium and allowed to attach overnight. test compound is added in 0.1 ml medium, with a final concentration of 0.5% DMSO, and the plates incubated for 4 days at 37° C. The cells are then examined microscopically for evidence of morphological detransformation and cell mass is estimated by staining with methylene blue and measuring the absorbance at 620 nm. […] Activity against a range of naturally occurring EGFr or c-erbB-2 over-expressing human tumour cell lines (BT474-breast, HN5-head and neck, N87-gastric and Calu3-lung) is assessed with selected compounds by the same methodology.

Regarding “(1-Benzyl-1H-indazol-5-yl)-(6-(5-methanesulphonylmethyl-1,3,4-oxadiazol-2-yl)-quinazolin-4-yl)-amine [Example 44]”, the GI50 (in general, the concentration giving 50% growth inhibition) was 1400 nM.
